Experiment [1] deals with T1, Progesterone receptor (Homo sapiens, UniProt P06401).
T1 sequence (P06401 whole entry): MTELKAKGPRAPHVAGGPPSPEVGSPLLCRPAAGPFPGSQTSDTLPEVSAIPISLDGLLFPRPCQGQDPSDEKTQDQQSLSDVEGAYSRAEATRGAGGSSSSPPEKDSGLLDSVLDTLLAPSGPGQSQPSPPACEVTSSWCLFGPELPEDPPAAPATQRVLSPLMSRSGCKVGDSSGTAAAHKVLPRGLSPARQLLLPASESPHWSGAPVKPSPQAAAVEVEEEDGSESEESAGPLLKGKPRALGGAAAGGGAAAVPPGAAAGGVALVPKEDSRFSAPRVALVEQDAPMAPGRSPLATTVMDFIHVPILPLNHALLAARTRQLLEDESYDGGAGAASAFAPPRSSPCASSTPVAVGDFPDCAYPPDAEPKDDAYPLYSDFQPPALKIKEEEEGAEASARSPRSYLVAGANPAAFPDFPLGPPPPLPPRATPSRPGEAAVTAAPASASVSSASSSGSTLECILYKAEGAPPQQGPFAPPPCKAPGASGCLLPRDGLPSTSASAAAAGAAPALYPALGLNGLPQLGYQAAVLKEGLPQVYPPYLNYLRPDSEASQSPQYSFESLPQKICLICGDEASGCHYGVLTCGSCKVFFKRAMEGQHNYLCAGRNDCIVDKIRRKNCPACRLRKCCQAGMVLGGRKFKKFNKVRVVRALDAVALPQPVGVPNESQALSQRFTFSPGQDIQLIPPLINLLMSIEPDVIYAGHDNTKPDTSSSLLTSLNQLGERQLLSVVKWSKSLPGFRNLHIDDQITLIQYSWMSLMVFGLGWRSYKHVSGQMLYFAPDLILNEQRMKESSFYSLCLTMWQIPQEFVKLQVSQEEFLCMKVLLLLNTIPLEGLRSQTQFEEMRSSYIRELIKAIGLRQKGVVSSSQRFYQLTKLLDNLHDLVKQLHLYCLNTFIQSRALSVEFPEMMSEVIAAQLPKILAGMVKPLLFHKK
Kind of experiment: Antagonist activity against human progesterone receptor (hPR) in T47D human breast cancer cell line; NA=not active. It is filed as functional, cell-based.

Experiment [2] concerns the target T1, Progesterone receptor. Description: Antagonist activity against human progesterone receptor (hPR) expressed in CV-1 cells; NA=not active. It is filed as functional, cell-based.

With `CC(=O)[C@H]1CC[C@H]2[C@@H]3CCC4=CC(=O)CC[C@]4(C)[C@H]3CC[C@]12C` [PROGESTERONE], the IC50 result at Progesterone receptor [1] and against Progesterone receptor [2] was “Not Active” throughout.

For the origin of these results see ChEMBL document CHEMBL1133403 (Bioorg Med Chem Lett, 2000).
